Values of other authors as cited in patent publication US6664372B1, “Azatide peptidomimetics” (The Scripps Research Institute, priority 1996, dated 2003).

Molecular target: Monoclonal antibody 3-E7
Settings: read-out: Kd for binding to monoclonal antibody 3-E7; cited from earlier work

Substance: Tyr-Gly-Gly-Phe-Leu [[Leu^5]-enkephalin]
- Kd: 7.1 nM
